Binding of CDR-mutated scFvs to a peptide of the spike HR2 region

Antigen: PDVDLGDISGINAS, a 14-residue peptide of the SARS-CoV-2 spike HR2 region.

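The parent was found by panning a naive human phage display library on the peptide. This is the validation round: designs drawn from the data on random variants, tested in the same kind of assay. Their group label is 14H_Rand (Rand: our label for a block that the file lists under HC and that is probably the random mutants of the ten best first-round binders). The scFvs were displayed on barcoded MATa yeast, the peptide on MATalpha yeast. After mating in shaken culture at 30 °C for 16 h, diploids were selected and their barcode pairs sequenced. Scores were corrected for input abundance and mapped to Kd with protein pairs of known affinity run in the same pool. Each pool was mated in six replicate cultures.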

Each scFv is VH, a (GGGGS)3 linker, VL, as in the parent Ab-14, and differs from it in the CDRs of the heavy chain only.
VH: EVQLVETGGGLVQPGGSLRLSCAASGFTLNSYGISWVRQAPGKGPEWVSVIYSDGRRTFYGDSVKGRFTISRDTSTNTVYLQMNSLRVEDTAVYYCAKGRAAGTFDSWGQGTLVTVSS
VL: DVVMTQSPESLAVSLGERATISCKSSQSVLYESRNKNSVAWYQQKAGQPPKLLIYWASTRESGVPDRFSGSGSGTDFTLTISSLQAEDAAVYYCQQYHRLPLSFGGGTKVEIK

Each variant is given by its three heavy chain CDRs, as the data file delimits them; those of the parent are GFTLNSYGIS, VIYSDGRRTFYGDSVK, GRAAGTFDS.
Values are log10 of the apparent Kd in nM; lower means stronger binding.
"n.d." marks a missing value. The strain was present, yet no cells mated with the target were sequenced in that replicate, which points to weak or no binding.

| CDR-H1 | CDR-H2 | CDR-H3 | replicates, log10 nM | control signals |
|---|---|---|---|---|
| GFVLDSPGIS | VIYSDGRRTFYGDSVK | GRAAGTADS | n.d. n.d. n.d. n.d. n.d. n.d. | 0/18 |
| GFTLNEYGIS | VIYSDGRRTRYGDSVK | GRAAVTFDQ | n.d. n.d. n.d. n.d. n.d. n.d. | 0/18 |
| GFTLNEDGIS | VIYSDGRRTFYGGSVK | GRAAVTFDQ | n.d. n.d. n.d. n.d. n.d. n.d. | 0/18 |
| GFTMNEYGIS | VIYSDGRKTFYTDSVK | GRFAPTFDS | n.d. n.d. 0.89 1.61 2.33 2.81 | 1/18 (1.71) |
| GFTLNDYGIH | VIYSDGRRTFYGDSVK | GRAALTFIS | n.d. n.d. n.d. n.d. n.d. n.d. | 0/18 |
| NFTLNEYGIS | VIYSIGRRTFYTDSVK | GRFAGTFDS | n.d. n.d. n.d. n.d. n.d. n.d. | 1/18 (2.73) |
| GFTLNQYGIS | VIYSDGRFTFYSDSVK | GRAAGFFDS | n.d. n.d. n.d. n.d. 2.12 n.d. | 0/18 |
| GFDFNSYGIS | VQYSDGRRTFYGDSVK | GRAAGWFNS | n.d. n.d. n.d. n.d. n.d. n.d. | 0/18 |
| GFTLDSYGIS | VIYSDGRRTFYGDSVK | GRAAGTALL | n.d. n.d. n.d. n.d. n.d. n.d. | 0/18 |
| GFTLNSYGIS | VIYADGRRTFYGDSVK | GRAAGNNKW | 0.02 0.06 -0.16 -0.08 -0.23 0.05 | 0/18 |
| GFTLNQYGIF | VIYSDGRRTFYSDSVK | GRAAGFFDS | n.d. n.d. n.d. n.d. n.d. n.d. | 1/18 (1.54) |
| GFTLNSYGIS | VIYADGRRTPYGDSVK | GRALGTNKS | n.d. n.d. n.d. n.d. n.d. n.d. | 0/18 |
| GFCLDSYGSS | VILSDGRRTFYGDSVK | ARAAGTALS | n.d. n.d. n.d. n.d. n.d. n.d. | 0/18 |
| GFTLNQYGIS | VIYSDGRRTVYQDSVK | GRAAGFFVS | n.d. n.d. n.d. n.d. n.d. n.d. | 0/18 |
| GFTLRSYGIS | VIYVDGRRTFPGDSVK | GPAAGTALS | n.d. n.d. n.d. n.d. n.d. n.d. | 0/18 |
| GFDLNNYGIS | VIYSDGRRTFYGCSVK | NRAAGWFNS | n.d. n.d. n.d. 2.37 n.d. n.d. | 0/18 |
| RFDLNSYGIS | VIYSDGRRTFYGDSVK | GRAAGWFNS | n.d. n.d. n.d. n.d. n.d. n.d. | 0/18 |
| GFTLNDYGIS | VIYSDGSRTSYGDSVK | GRAVLTFIS | n.d. n.d. n.d. n.d. n.d. n.d. | 0/18 |
| GFTLNDYGIR | VIYSDGRNTQYIDSVK | GRAARTFDS | n.d. n.d. n.d. n.d. n.d. n.d. | 1/18 (1.62) |
| GFFLNSYCIS | VIYSDGRNTFYGDSVK | GRAAGWFNS | n.d. n.d. n.d. n.d. n.d. n.d. | 0/18 |
| GFTLNQYGIS | VIYSDGRRTFYSDSVK | GRAAMFFDS | n.d. n.d. n.d. n.d. n.d. 2.88 | 0/18 |
| GFDLNSYGIS | VIYSDGRRTFYGDSVK | GRTAQWFNS | n.d. 2.25 n.d. n.d. n.d. n.d. | 0/18 |
| GFTLNSYGIS | VIYADMRRTQYGDTVK | GRAAGTNKS | n.d. n.d. n.d. n.d. n.d. n.d. | 0/18 |
| GFTLNEYGIS | VIYSDGRNTWYTDSAK | GREAGTFDV | n.d. 0.15 n.d. n.d. n.d. n.d. | 0/18 |
| GFDLNSYGIS | VIYSDGHRTFYGDSVK | GRGAGWFNS | n.d. n.d. n.d. n.d. n.d. n.d. | 0/18 |
| SFTLNSYGIS | VIYADGRRTFYKDSMK | GRAAQTNKS | n.d. n.d. n.d. n.d. n.d. n.d. | 0/18 |
| PFTLDSYGIS | VIYSDGRRTFYGDSVK | ARAAMTALS | n.d. n.d. n.d. n.d. n.d. n.d. | 0/18 |
| GFTLNDYGIS | VIYSCGRRTFYGDSWK | GRAALTFIS | n.d. n.d. n.d. n.d. n.d. n.d. | 0/18 |
| GFTLAQYGIS | VIYSDGRRTFYSPSVK | IVAAGFFMS | n.d. n.d. n.d. n.d. n.d. n.d. | 0/18 |
| GFTLDSGGIS | VIYSDGRRTFYGDHVK | GRAAGTALS | n.d. n.d. n.d. n.d. n.d. 1.42 | 0/18 |
| GFTLNSYGIS | VIYADGRRTFYDDSVK | GRAAGTNKS | n.d. n.d. n.d. n.d. n.d. n.d. | 0/18 |
| GNDLNSYGIS | VIYSDGRRTFYGDSVK | GRAATWFNS | n.d. n.d. n.d. n.d. n.d. n.d. | 0/18 |
| GFTLNQHGIS | VIYSDGRRTFYSDIVK | GRAAGFFDS | n.d. n.d. n.d. n.d. n.d. n.d. | 0/18 |

The closing 5 entries, repeated:

{"CDR-H1": "GFTLAQYGIS", "CDR-H2": "VIYSDGRRTFYSPSVK", "CDR-H3": "IVAAGFFMS", "replicates, log10 nM": "n.d. n.d. n.d. n.d. n.d. n.d.", "control signals": "0/18"}
{"CDR-H1": "GFTLDSGGIS", "CDR-H2": "VIYSDGRRTFYGDHVK", "CDR-H3": "GRAAGTALS", "replicates, log10 nM": "n.d. n.d. n.d. n.d. n.d. 1.42", "control signals": "0/18"}
{"CDR-H1": "GFTLNSYGIS", "CDR-H2": "VIYADGRRTFYDDSVK", "CDR-H3": "GRAAGTNKS", "replicates, log10 nM": "n.d. n.d. n.d. n.d. n.d. n.d.", "control signals": "0/18"}
{"CDR-H1": "GNDLNSYGIS", "CDR-H2": "VIYSDGRRTFYGDSVK", "CDR-H3": "GRAATWFNS", "replicates, log10 nM": "n.d. n.d. n.d. n.d. n.d. n.d.", "control signals": "0/18"}
{"CDR-H1": "GFTLNQHGIS", "CDR-H2": "VIYSDGRRTFYSDIVK", "CDR-H3": "GRAAGFFDS", "replicates, log10 nM": "n.d. n.d. n.d. n.d. n.d. n.d.", "control signals": "0/18"}

The authors averaged sequences with at least three values out of six and counted those with two or fewer as poor binders.
The range of this assay differs from that of the first round, and the authors advise against merging the two.
Three control strains display no target. For all heavy chain designs, 1% of the pairings with them gave a signal, with a median of 2.08 and one signal in twenty below 0.84, so weak values seen in few replicates may be background. The control count says in how many pairings with the empty strains this scFv gave a signal, with their mean in brackets.

From the AlphaSeq antibody data of Li et al. 2023 (doi:10.1038/s41467-023-39022-2), copy in the FLAb collection.